What is called pIC50 is the IC50 on a negative log10 scale, so that one unit is a factor of ten.

For this experiment, the target named is T1, Polyamine deacetylase HDAC10 (Homo sapiens, UniProt Q969S8).
T1 sequence (Q969S8 whole entry): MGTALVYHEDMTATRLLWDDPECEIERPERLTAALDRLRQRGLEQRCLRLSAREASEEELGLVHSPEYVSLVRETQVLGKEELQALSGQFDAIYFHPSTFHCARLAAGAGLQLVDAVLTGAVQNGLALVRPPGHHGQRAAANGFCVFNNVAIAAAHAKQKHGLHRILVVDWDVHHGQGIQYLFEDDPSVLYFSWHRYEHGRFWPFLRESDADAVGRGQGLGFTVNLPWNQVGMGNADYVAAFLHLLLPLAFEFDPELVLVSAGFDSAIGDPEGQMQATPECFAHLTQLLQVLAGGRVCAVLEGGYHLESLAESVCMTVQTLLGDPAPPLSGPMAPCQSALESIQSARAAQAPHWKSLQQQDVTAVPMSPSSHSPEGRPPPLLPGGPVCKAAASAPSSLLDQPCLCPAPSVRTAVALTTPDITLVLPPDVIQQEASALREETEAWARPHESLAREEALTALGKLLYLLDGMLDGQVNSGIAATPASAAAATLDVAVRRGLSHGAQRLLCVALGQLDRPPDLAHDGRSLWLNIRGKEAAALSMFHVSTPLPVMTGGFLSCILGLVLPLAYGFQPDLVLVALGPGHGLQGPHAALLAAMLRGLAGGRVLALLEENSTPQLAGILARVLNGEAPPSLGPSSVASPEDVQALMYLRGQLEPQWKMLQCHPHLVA
Kind of experiment: Inhibition of HDAC10.

Each structure is given as a SMILES string. pIC50: −log10 of the molar value.

As to `O=C(CCCCCCC(=O)Nc1ccccc1)NO` [VORINOSTAT], the negative-log IC50 (pIC50) was 6.68.
